Values quoted from earlier work as cited in patent US4629793A, “2,3-di-substituted-5,6-dihydroimidazo [2,1-b] thiazole, its salts, production thereof and anti-inflammatory agent containing the same” (Toyo Jozo Kabushiki Kaisha, priority 1981, dated 1986).

System: bovine serum albumin
Conditions: known agents, stated "in general"; cited from earlier work

O=P1(N(CCCl)CCCl)NCCCO1 (stereo not shown) [cyclophosphamide]
effect on heat denaturation of bovine serum albumin: do not inhibit the heat denaturation of bovine serum albumin but rather stimulate the protein heat denaturation
